{
  "source": "patent US6586443B1",
  "about": "“Method of treating multiple sclerosis” (priority 1986, dated 2003)",
  "origin": "cited, not measured here",
  "tested_on": "Mu and Delta opiate receptor sites",
  "conditions": "generally rated; cited from earlier work",
  "data": [
    {"compound": "C=CCN1CC[C@]23c4c5ccc(O)c4O[C@H]2C(=O)CC[C@@]3(O)[C@H]1C5", "note": "[naloxone]", "values": [
      {"measurement": "Mu blocking action relative to Delta blocking action", "result": "about ten"}
    ]}
  ]
}
